Experimental data published in publication PMC10143232, “Dihydropyrimidone Derivatives as Thymidine Phosphorylase Inhibitors: Inhibition Kinetics, Cytotoxicity, and Molecular Docking” (Molecules, 2023).

The chains behind the UniProt entries cited, without tags or fusion partners. Where a name states a change or a piece, a line headed by the entry shows the natural chain unless it says otherwise.
UniProt P07650: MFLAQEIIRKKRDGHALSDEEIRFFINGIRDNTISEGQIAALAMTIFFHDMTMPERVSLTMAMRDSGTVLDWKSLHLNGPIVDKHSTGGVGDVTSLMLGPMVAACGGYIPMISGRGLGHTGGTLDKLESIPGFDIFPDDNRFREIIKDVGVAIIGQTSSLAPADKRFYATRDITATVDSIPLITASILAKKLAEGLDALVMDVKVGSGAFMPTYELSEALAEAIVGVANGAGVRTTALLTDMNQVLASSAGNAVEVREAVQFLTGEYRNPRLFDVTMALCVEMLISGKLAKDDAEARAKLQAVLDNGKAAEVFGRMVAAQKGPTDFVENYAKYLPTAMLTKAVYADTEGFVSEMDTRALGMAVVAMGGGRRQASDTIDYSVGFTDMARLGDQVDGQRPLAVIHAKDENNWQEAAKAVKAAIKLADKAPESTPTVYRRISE

What was measured:
[1] = molecular target: T1, Thymidine phosphorylase (TP) (Escherichia coli, UniProt P07650); experiment: Thymidine phosphorylase inhibition assay (spectrophotometric, 290 nm); type: biochemical; conditions: E. coli TP; n = 3; NA: not active; read-out: Thymidine Phosphorylase Inhibitory Activity IC50 ± SEM
T1 construct: purchased Sigma Aldrich, USA
Method: Thymidine phosphorylase (source: E. coli, EC Number 2.4.2.4), thymidine (substrate), and potassium phosphate monobasic (as buffer) were acquired from Sigma Aldrich, USA. The 7-deazaxanthine (standard inhibitor) was acquired from Santa Cruz Biotechnology, Inc., Santa Cruz, CA, USA. Dimethylsulfoxide (DMSO), used as a solvent, was obtained from Fisher Scientific, Schwerte, Germany.
Reaction was performed in 96-well plates and in triplicates. The 200 µL reaction mixture was comprised of 10 µL of the test compound (0.5 mM; dissolved in DMSO), 150 µL of potassium phosphate buffer (pH 7.0, 50 mM), and 20 µL of TP enzyme (0.058 unit/well). The 96-well plate containing all these reagents was then incubated at 30 °C for 10 min. After 10 min, 20 µL of 1.5 mM substrate, i.e., thymidine was added, and changes in O.D. (optical density) were recorded at 290 nm for 10 min by using microtiter plate reader (SpectraMax 384, Molecular Devices, San Jose, CA, USA).
SoftMax Pro 4.8 software (Molecular Devices, San Jose, CA, USA) was used to analyse the results. Percent inhibition was calculated by using Microsoft Excel by applying the following formula: % Inhibition=100−(O.D.Test compound/O.D.Control)×100 where O.D. represented the optical density.
Results were presented as means ± SEM (standard error of mean) (n = 3). […]

[2] = molecular target: T1, Thymidine phosphorylase (TP); experiment: Mechanistic (kinetic) studies of TP inhibition; type: biochemical, E. coli
Method: Kinetic studies are used for the investigation of chemical reactions in terms of their reaction rates, reaction mechanisms, and the factors that affect these parameters. Herein, it is used determine the type/mechanism of inhibition of dihydropyrimidone derivatives. In mechanistic studies, TP (0.058 U/200 µL) was incubated with test compounds (200–500 µM) at 30 °C for 10 min. The reaction was then initiated with the addition of different concentrations of thymidine (ranging between 0.1875 and 1.5 mM). Cleavage of thymidine was monitored continuously for 10 min, at 290 nm, by using ELISA plate reader (SpectraMax 384, Molecular Devices, San Jose, CA, USA).
Results were presented as means ± SEM (standard error of mean) (n = 3). EZ-FIT, enzyme kinetics software (Perrella Scientific, Inc., Amherst, GA, USA) was used to calculate the IC50 values. In order to analyse the kinetic parameter, Grafit version 7.0 (Erithacus Software Ltd., Horley, UK) was used.

With O=c1[nH]c(=O)c2cc[nH]c2[nH]1 [7-Deazaxanthine, reference compound] the IC50 [1] was 41 ± 1.6 µM and the Ki [2] was 45 ± 0.003 µM.
